Laboratory results reported in ChEMBL document CHEMBL4834434, “Discovery of Novel and Potent N-Methyl-d-aspartate Receptor Positive Allosteric Modulators with Antidepressant-like Activity in Rodent Models” (J Med Chem, 2021).

Sequences of proteins named here, by UniProt entry; tags and fusion partners are left off. A change or cut given only in a name is not applied to a line headed by its entry.
UniProt Q91ZU9: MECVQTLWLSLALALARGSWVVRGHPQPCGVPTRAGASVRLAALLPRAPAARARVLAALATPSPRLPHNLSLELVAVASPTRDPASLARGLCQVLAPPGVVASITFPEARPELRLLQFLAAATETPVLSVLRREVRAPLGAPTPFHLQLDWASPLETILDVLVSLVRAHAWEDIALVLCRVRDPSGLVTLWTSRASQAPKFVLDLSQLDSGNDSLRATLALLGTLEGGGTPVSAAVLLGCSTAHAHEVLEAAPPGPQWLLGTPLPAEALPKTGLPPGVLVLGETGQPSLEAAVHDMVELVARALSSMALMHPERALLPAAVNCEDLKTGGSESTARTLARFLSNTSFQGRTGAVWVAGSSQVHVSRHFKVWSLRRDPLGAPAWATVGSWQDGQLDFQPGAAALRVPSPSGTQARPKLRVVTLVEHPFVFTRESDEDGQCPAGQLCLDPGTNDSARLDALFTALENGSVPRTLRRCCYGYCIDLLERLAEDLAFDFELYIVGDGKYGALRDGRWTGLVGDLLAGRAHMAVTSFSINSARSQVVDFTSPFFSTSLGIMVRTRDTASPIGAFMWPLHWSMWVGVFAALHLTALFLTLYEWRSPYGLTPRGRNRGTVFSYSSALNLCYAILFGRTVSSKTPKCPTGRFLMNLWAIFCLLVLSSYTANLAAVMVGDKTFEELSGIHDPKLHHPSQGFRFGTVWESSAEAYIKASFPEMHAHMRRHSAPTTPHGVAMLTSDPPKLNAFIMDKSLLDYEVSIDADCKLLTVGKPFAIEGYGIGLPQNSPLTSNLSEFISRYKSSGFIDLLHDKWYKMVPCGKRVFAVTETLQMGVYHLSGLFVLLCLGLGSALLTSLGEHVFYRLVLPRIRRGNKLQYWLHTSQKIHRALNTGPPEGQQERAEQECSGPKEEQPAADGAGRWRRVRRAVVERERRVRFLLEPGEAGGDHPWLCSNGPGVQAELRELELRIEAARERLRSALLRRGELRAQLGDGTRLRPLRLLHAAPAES
UniProt Q03391: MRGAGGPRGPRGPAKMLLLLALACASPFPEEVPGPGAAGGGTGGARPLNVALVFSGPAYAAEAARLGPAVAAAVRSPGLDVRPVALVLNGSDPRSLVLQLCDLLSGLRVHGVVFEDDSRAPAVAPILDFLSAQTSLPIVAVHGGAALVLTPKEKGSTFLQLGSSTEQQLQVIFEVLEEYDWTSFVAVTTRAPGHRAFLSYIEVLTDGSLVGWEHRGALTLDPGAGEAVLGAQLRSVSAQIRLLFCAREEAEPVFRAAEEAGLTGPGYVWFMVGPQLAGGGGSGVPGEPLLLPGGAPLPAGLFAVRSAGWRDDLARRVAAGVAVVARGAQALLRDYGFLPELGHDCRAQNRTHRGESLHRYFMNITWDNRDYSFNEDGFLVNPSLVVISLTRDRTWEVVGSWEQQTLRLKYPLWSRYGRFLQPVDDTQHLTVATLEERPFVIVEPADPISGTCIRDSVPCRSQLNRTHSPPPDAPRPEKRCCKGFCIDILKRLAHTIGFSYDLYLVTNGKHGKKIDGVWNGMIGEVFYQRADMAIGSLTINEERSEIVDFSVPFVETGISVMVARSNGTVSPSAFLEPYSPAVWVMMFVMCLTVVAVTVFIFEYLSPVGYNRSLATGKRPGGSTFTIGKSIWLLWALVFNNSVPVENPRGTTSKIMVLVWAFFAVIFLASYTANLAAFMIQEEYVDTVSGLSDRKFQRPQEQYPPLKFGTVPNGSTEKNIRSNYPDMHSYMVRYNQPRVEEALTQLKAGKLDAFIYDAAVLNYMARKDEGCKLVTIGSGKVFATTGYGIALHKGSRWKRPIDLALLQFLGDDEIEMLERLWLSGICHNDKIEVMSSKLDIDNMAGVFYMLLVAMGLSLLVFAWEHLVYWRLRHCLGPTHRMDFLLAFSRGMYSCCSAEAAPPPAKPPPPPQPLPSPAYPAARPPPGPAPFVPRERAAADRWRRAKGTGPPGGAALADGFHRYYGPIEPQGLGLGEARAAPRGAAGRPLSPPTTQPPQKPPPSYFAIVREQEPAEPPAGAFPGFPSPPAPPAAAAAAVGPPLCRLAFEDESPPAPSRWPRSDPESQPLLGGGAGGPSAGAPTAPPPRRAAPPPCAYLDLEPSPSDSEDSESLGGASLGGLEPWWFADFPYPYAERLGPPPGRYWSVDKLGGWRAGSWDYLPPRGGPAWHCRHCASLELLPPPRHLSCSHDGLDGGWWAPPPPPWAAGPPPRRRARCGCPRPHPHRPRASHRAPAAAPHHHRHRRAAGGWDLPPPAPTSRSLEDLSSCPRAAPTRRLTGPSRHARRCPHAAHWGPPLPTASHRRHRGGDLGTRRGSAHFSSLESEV
UniProt Q01097: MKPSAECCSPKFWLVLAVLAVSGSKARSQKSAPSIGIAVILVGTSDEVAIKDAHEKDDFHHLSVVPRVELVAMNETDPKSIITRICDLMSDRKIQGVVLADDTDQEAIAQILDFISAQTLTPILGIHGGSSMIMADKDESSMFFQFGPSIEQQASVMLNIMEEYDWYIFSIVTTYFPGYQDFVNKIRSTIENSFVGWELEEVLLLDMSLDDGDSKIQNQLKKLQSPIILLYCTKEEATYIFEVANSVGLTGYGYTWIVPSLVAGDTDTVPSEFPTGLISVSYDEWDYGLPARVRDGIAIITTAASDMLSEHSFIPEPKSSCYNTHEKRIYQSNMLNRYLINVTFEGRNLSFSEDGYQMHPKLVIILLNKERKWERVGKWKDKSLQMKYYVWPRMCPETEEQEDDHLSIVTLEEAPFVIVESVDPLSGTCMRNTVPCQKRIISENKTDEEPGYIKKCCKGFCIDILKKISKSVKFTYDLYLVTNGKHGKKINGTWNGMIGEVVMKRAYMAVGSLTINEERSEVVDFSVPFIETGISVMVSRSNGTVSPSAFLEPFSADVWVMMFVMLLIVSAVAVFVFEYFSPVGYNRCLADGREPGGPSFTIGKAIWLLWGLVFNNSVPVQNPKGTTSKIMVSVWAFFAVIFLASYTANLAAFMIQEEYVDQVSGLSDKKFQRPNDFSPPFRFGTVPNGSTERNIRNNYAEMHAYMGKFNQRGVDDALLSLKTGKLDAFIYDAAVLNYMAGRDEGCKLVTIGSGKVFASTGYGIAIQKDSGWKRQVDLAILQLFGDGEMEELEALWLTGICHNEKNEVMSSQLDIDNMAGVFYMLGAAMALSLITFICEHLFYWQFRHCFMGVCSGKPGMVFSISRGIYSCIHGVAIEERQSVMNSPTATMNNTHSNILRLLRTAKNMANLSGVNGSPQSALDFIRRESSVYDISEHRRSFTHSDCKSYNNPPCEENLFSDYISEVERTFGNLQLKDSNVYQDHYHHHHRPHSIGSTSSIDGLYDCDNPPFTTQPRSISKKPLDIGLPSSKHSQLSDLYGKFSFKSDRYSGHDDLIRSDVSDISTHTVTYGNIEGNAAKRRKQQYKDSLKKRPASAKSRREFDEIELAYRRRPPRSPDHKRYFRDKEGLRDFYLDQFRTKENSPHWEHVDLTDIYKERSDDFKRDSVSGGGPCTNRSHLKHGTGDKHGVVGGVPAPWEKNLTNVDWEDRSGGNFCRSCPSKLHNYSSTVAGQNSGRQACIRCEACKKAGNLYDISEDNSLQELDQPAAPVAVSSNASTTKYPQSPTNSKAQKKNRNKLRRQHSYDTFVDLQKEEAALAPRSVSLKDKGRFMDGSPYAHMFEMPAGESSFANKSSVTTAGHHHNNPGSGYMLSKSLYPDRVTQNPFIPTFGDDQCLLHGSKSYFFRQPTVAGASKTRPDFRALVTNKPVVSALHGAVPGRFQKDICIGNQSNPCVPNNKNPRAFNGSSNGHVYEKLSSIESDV
UniProt Q01098: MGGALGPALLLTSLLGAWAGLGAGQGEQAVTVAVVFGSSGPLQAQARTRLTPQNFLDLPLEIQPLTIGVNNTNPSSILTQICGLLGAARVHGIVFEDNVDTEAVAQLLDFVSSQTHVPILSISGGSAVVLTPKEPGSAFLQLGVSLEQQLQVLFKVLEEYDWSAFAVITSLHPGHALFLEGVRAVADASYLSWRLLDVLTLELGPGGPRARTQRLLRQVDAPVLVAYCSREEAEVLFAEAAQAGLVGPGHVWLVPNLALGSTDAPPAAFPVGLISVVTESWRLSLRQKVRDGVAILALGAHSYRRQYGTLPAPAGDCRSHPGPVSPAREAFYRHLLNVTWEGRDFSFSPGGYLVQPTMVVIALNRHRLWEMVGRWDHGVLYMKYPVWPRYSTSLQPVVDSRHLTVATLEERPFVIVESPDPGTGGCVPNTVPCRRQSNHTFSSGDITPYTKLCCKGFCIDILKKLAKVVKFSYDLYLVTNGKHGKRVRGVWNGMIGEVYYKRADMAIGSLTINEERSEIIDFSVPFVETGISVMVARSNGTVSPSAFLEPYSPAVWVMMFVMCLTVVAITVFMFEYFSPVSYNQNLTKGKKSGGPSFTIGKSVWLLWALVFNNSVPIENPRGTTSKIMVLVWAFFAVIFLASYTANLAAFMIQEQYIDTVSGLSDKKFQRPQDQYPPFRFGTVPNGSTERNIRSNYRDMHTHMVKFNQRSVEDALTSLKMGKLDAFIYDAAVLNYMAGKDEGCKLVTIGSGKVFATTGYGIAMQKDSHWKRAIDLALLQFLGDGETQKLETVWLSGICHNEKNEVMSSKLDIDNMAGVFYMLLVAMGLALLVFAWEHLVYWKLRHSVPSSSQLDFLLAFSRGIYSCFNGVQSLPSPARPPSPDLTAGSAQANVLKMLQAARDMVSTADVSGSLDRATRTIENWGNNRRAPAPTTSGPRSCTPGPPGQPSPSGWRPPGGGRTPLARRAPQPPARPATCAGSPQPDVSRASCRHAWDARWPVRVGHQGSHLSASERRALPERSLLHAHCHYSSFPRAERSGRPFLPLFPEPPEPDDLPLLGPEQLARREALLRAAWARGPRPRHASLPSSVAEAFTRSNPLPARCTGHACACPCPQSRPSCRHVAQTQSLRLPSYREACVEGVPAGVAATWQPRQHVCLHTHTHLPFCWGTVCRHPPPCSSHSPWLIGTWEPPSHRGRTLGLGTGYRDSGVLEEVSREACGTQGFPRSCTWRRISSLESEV
UniProt A2AIR5: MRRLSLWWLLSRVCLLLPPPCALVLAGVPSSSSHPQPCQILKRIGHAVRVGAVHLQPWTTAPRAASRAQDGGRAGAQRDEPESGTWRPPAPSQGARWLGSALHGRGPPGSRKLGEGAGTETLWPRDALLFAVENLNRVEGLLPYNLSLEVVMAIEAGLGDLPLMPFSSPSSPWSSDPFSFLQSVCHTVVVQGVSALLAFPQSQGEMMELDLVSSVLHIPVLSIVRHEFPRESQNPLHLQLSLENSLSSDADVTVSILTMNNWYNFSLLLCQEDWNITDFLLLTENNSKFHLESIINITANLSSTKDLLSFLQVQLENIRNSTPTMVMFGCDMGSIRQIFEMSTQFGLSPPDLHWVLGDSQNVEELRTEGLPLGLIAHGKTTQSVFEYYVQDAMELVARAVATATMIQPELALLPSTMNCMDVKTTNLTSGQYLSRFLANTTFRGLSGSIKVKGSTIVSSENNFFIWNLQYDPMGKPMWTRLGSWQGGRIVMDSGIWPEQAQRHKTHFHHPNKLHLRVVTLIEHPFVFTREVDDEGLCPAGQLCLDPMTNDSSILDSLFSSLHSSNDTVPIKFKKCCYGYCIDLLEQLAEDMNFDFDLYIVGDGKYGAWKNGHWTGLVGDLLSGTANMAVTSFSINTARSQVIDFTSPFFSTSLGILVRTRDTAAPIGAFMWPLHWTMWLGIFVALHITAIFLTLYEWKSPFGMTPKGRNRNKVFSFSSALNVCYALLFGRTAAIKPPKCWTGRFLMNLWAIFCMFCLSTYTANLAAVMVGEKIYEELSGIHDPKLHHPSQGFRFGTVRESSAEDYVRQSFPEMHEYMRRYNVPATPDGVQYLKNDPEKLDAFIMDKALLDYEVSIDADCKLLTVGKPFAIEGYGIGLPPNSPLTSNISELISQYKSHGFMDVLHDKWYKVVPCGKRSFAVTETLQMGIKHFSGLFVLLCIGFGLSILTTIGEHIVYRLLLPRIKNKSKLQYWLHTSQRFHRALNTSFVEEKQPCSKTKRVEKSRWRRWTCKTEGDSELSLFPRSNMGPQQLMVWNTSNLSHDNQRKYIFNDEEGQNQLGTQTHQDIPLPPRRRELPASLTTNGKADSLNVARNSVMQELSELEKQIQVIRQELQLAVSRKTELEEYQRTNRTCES

Key:
[1] = biological target: T1, Glutamate NMDA receptor (Mus musculus) (UniProt P35436+Q91ZU9+Q03391+P35438+Q01097+Q01098+A2AIR5); assay: Positive allosteric modulation of C57BL/6 mouse NMDA receptor assessed as fold change in compound potentiated NMDA-induced current relative to NMDA current alone at 30 uM measured after 15 to 30 mins by patch-clamp method; type: tissue-based; conditions: Brain, filed as positive allosteric modulator, time 15-30 min
[2] = biological target: T1, Glutamate NMDA receptor (Mus musculus); assay: Positive allosteric modulation of C57BL/6 mouse NMDA receptor assessed as fold change in compound potentiated NMDA-induced current relative to NMDA current alone in presence of saturating glutamate by patch-clamp method; type: tissue-based; conditions: Brain, filed as positive allosteric modulator

Compound: O=C(Nc1cc(Cl)cc(Cl)c1)c1ccc(Cn2nc(C(F)(F)F)cc2C(F)(F)F)o1
- fold change (FC) [1]: 13.8
- fold change (FC) [2]: 13.8
